From patent US20160159879A1 (UNIVERSITY OF NORTH CAROLINA AT CHAPEL HILL, published 2016)

Molecular target: Aprotinin (UniProt P00974)

## Trypsin
  cleavage of the fluorogenic substrate BGAR-MCA by trypsin: 2 U/ml aprotinin which inhibited trypsin activity by ˜100%
